From ChEMBL document CHEMBL4808148, “HDAC6 screening dataset using tau-based substrate in an enzymatic assay yields selective inhibitors and activators” (2021) come the findings set out here.

SMILES strings stand for the structures. Shown are results outside the selection of strong results, which stands elsewhere.

In this test the target is T1, Protein deacetylase HDAC6 (Homo sapiens) (UniProt Q9UBN7).
T1 sequence (whole entry): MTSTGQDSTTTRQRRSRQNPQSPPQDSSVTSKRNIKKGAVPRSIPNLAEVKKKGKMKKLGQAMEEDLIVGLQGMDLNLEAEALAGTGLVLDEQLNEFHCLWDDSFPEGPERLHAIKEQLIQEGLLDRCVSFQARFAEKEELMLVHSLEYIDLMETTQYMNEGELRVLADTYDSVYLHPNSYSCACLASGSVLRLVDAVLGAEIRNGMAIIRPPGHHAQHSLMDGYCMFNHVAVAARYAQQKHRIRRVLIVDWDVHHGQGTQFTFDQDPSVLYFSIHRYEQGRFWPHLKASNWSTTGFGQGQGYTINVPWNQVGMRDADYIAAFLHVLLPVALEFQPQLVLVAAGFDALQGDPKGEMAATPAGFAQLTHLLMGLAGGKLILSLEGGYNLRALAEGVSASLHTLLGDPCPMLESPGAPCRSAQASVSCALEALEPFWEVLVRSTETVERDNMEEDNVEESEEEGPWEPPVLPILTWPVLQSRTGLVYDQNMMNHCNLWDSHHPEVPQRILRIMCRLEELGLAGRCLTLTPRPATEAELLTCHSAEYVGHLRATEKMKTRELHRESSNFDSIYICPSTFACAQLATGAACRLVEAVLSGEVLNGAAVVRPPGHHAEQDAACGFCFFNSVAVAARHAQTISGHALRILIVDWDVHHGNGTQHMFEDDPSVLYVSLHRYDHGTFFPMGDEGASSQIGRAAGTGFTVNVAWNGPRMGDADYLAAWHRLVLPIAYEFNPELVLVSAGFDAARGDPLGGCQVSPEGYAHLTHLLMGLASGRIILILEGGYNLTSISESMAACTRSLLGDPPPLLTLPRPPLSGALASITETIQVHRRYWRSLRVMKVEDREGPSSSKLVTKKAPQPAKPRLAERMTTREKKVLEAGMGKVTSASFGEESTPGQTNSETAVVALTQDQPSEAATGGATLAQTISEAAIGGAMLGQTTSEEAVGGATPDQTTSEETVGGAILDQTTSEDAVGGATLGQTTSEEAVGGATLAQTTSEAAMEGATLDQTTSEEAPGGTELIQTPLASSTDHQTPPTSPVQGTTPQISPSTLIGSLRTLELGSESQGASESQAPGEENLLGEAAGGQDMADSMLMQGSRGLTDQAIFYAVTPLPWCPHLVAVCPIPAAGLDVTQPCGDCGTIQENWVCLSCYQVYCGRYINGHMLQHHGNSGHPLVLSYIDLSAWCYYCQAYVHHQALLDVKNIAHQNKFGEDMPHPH
The following applies: at 10 µM.
`Clc1ccc(N2CCN(Cc3c[nH]c4ncccc34)CC2)cc1`: the inhibition was -8.35%.
